These results are taken from PubChem BioAssay AID504901 (Southern Research Specialized Biocontainment Screening …, 2011).

The test system of this assay is Mycobacterium tuberculosis H37Rv growth inhibition, no glycerol. Briefly: Confirmatory growth inhibition assay, Mycobacterium tuberculosis H37Rv, absence of glycerol (AID 504901).

The structures appear in SMILES notation.

With `c1ccc(/N=C2\N=C(Nc3ccccn3)c3ccccc32)nc1`, the IC90 was 2.79 µM. Where the note is “measured here: IC50 of growth inhibition”, this compound gave an IC50 of 2.12 µM.
